System: PBMC
Test: Inhibition of LPS-induced TNFalpha production in human PBMC
Assay type: functional, cell-based

`COc1ccc(C2CNC(=O)C2)cc1OC1CCCC1` (stereo unspecified) [ROLIPRAM] gave an IC50 of 60 nM.
